Sequences of proteins named here, by UniProt entry; tags and fusion partners are left off.
UniProt D9U2B9, entry or part of it: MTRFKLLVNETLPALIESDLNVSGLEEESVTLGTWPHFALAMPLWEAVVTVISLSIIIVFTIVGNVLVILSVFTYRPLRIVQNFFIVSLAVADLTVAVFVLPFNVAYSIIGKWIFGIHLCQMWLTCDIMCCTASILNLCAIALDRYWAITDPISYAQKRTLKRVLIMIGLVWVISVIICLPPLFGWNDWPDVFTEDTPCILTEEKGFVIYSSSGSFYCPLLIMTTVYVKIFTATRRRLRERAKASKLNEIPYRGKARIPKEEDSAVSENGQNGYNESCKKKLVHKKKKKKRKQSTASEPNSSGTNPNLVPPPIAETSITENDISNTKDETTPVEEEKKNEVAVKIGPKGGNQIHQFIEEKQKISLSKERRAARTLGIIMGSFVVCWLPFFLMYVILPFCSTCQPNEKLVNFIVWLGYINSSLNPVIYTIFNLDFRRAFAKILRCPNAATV

According to publication PMC4211885, “Characterization of a Prawn OA/TA Receptor in Xenopus Oocytes Suggests Functional Selectivity between Octopamine and Tyramine” (PLoS ONE, 2014):

Biological target: OA/TAMac receptor (Macrobrachium rosenbergii, UniProt D9U2B9)
Assay: Antagonist block of ID evoked by 50 µM octopamine in OA/TAMac-injected oocytes
Assay type: cell-based
Details: 100 µM antagonist with 50 µM octopamine
Procedure: Recordings were performed 1–3 days post-injection at room temperature (20–22°C). Currents were recorded under two-electrode voltage clamp using an Axoclamp 900a amplifier (Molecular Devices LLC, CA USA). A digidata 1440a analog to digital converter was used in conjunction with pCLAMP 10 software (Molecular Devices) for data acquisition and to generate voltage commands. For each step protocol or chemical application data were typically sampled at 5 KHz and filtered digitally at 1 KHz. For the duration of each experiment the current was also continuously sampled at 1 kHz using a separate minidigi 1A digitizer (Molecular Devices). Glass microelectrodes were pulled from filamented 1.2 mm thin wall borosilicate glass (World Precision Instruments, Sarasota, FL) using a Sutter Instruments P-97 puller. They were filled with 3 M KCl and had resistances of 0.8–2.0 MΩ. A silver chloride pellet immersed in 3 M KCl and connected to the bath via a 3% agar bridge made with 3 M KCl was used as the reference electrode.
In experiments where more than three drugs or concentrations were tested a precisely controlled 30 s perfusion-switch was used. Up to eight channels were connected to the bath via an 8-way manifold. There was an approximately 6–7 s delay for solutions to traverse the dead volume between the manifold and the bath.

For `CN1CCN2c3ccccc3Cc3ccccc3C2C1` (stereo not shown) [mianserin], the “Block of octopamine-evoked ID at highest concentration” value was “incomplete block”.
